Key:
[1] = target: T1, Dihydrofolate reductase (Pneumocystis carinii, UniProt P16184)
T1 sequence (P16184 whole entry): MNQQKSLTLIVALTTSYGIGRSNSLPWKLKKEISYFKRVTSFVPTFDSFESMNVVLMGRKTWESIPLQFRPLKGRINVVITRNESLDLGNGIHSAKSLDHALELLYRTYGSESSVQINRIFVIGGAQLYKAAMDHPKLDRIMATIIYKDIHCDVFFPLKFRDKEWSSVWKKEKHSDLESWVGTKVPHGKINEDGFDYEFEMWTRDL

Protein sequences, listed by entry. Tags and fused reporters are not part of them.
UniProt P09619, whole entry: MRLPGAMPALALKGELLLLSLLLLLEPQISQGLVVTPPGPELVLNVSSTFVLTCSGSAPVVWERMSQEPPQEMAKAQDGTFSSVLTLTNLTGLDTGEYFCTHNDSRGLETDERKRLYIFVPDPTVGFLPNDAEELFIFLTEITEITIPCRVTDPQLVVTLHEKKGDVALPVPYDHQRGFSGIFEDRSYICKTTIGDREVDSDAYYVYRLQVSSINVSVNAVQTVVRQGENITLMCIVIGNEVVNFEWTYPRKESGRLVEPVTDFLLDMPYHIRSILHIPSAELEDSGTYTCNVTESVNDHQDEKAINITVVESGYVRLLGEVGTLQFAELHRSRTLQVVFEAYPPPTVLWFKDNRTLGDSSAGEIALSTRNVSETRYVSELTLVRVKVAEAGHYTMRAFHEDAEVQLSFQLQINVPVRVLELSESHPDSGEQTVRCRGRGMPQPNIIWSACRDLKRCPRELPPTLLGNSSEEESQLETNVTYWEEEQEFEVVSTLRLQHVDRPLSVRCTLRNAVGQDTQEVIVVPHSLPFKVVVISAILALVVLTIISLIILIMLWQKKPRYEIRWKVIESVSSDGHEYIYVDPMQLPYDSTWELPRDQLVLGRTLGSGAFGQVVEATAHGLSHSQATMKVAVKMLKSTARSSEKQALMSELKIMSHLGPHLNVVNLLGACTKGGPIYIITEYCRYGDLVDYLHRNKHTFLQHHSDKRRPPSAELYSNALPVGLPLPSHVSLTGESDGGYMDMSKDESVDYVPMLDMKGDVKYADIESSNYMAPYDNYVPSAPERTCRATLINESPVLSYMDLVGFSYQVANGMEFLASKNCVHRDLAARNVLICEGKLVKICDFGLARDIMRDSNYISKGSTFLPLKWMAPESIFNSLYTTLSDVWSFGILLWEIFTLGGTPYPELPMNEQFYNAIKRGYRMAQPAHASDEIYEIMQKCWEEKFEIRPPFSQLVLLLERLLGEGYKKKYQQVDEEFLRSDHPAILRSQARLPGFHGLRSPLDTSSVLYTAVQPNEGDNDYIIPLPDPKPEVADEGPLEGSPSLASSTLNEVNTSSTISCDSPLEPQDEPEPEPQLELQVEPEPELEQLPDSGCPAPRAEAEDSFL

[2] = target: Platelet-derived growth factor receptor beta (Homo sapiens, UniProt P09619); experiment: cell-based

Row | Compound | IC50 [1] | IC50 [2]
1 | CCCC(Cc1coc2nc(N)nc(N)c12)c1ccccc1OC (racemic) [2,4-diaminofuro[2,3-d]pyrimidine, 8] | 42.5 µM | 
2 | CCCCC(Cc1coc2nc(N)nc(N)c12)c1ccccc1OC (racemic) [2,4-diaminofuro[2,3-d]pyrimidine, 11] | 30.9 µM | 
3 | CCC/C(=C/c1coc2nc(N)nc(N)c12)c1ccccc1OC [E/Z ratio=2:1] |  | 17.8 µM

Source: BindingDB's records for doi:10.1016/j.bmc.2009.08.044 (Duquesne University, 2009)
